Assay results: patent US10188739B2 (Xenetic Biosciences, Inc., priority 2014, dated 2019)

Tests used:
Assay type in all cases: in vivo, CD-1 mice
[1] = Pharmacokinetics and biodistribution following intranasal delivery (Study 2): brain concentrations over time; details: for Ind. Insulin Conc.: LLOQ 45 ng/g; for Insulin Conc in brain, Individual: insulin^AF647 0.90 mg/kg (0.155 μmol insulin/kg) single intranasal dose
Protocol: Animals were weighed and dosed at 5 μL of dosing material per 20 g of body weight. Animals were anesthetized and held with the dorsal end facing down. Dosing materials were administered at a rate of ˜1 μL/10 seconds split equally through both nostrils. […] At nominal time points post-dose, animals were sacrificed followed by blood collection, perfusion (perfusate contained 2.7% w/v BSA and 100 U/mL heparin in 1×PBS pH7.4), and tissue collection. The olfactory bulbs were included in the collection of the brain tissues. All tissues were stored at nominal −80° C. until assay. Whole tissue samples were collected. Brain was divided into two sections longitudinally. Half was assayed as described below and half was snap-frozen and stored at −80 C for storage. Sample matrices and total number of samples collected in the study for each dose group were stored at nominal −80° C. […] Brain tissue samples were assayed using acidified ethanol extraction overnight followed by 4 hours of tandem enzyme digest, as described above. The test articles described above were used as calibration standards.

[2] = Pilot single intranasal dose: brain levels of AF647-labelled insulin/Sialong (acidified ethanol extraction, tandem enzyme digest, fluorescence); details: for Brain Conc.: assay replicates
Protocol: Male CD-1 mice of 8 to 9 weeks of age (18-20 g body weight) were acclimatized for 7 days before being enrolled into the study. Mice were weighed and dosed at 5 μL of dosing material per 20 g of body weight. […] Animals were anesthetized and held with the dorsal end facing down. Dosing materials were administered at a rate of 1 μL/10 seconds split equally through both nostrils. Total dosing time ranged from 1.8 to 2.3 minutes. After a nominal 10 minutes post-dose, animals were sacrificed followed by blood collection, perfusion, and tissue collection. The olfactory bulbs were included in the collection of the brain tissues. All tissues were stored at nominal -80° C. until assay. Perfusate contains: 1×PBS pH 7.4, +2.7% w/v BSA+100 U/mL heparin. […] Briefly, the procedures are outlined below: Assay Day 1 • 1. […] Homogenized brains 10% w/v with ice-cold 0.1 mM HCl diH2O:Ethanol (25:75); the […] test sample brains were homogenized • 3. […] Transferred 0.5 mL of each test sample into tubes from step 1. Assayed all test samples and calibration standards in duplicates • 4. Shake overnight at 4° C. ( 17.5 h) on orbital shaker. […] Centrifuge all samples at 3500×g for 20 min at 4° C. • 6. Collect 0.4 mL of supernatant for each sample • 7. Evaporate until complete dryness under airflow of 7 psi for 70 min at 37° C. • 8. Reconstitute all samples with reaction buffer containing 50 mM Tris pH 8 and 2 mM CaCl2 • 9. Add 1 U of proteinase K to all samples; invert mix well • 10. Incubate all samples at 37° C. for 2 h • 11. Mix samples well and adjust to pH 4 with citric acid; mix well • 12. Add 1280 U of pepsin to all samples; invert mix well • 13. Incubate all samples at 37° C. for 2 h • 14. Vortex mix all samples and sonicate at RT • 15. Centrifuge at 13200 rpm for 10 min at RT • 16. Transfer 250 μL of supernatant of each sample onto 96-well plate • 17. Take readings at Ex/Em of 635/675 nm

[3] = Pilot single intranasal dose: lung/liver/kidney/spleen levels of AF647-labelled insulin/Sialong (tissue lysate fluorescence); details: nominal 10 minutes post-dose
Protocol: Male CD-1 mice of 8 to 9 weeks of age (18-20 g body weight) were acclimatized for 7 days before being enrolled into the study. Mice were weighed and dosed at 5 μL of dosing material per 20 g of body weight. […] Animals were anesthetized and held with the dorsal end facing down. Dosing materials were administered at a rate of ˜1 μL/10 seconds split equally through both nostrils. Total dosing time ranged from 1.8 to 2.3 minutes. After a nominal 10 minutes post-dose, animals were sacrificed followed by blood collection, perfusion, and tissue collection. The olfactory bulbs were included in the collection of the brain tissues. All tissues were stored at nominal −80° C. until assay. Perfusate contains: 1×PBS pH 7.4, +2.7% w/v BSA+100 U/mL heparin. Lung/Liver/Kidney/Spleen. […] To evaluate recovery and matrix differences between the calibration matrices and study test samples, a spiking recovery experiment was performed (Table 2). […] The RFU correction factor was determined by dividing the response of each analyte spiked into BALB-c lysates (preparation procedures described below) by the response of each analyte spiked into CD-1 homogenate and then extracted. For kidney and liver matrices, there was enough material available to evaluate spiking recovery at two different levels. […] However, due to lack of tissue material, lung and spleen spiking recovery tests could only be performed at one concentration level. Consequently, response corrections were made based on singular values. Briefly, the sample preparation procedures are outlined below: […] For liver, due to the large size of this organ, a 1:1 tissue:lysis buffer ratio was used during homogenization. • 1. Add remaining 9 parts of lysis buffer to liver homogenates • 2. Lyse homogenates with 5 mm stainless steel beads with TissueLyzer by agitation at 25 Hz for 30 min • 3. Further incubate lysates at RT for 30 min on orbital shaker • 4. Pool lysates • 5. […] Centrifuge samples at 13200 rpm for 10 min to pellet debris • 7. Transfer 250 μL of supernatant onto 96-well plate • 8. Read plate at Ex/Em 635/675 4. Assay Performances

[4] = Pilot single intranasal dose: plasma levels of AF647-labelled insulin/Sialong (fluorescence); details: nominal 10 minutes post-dose
Protocol: Male CD-1 mice of 8 to 9 weeks of age (18-20 g body weight) were acclimatized for 7 days before being enrolled into the study. Mice were weighed and dosed at 5 μL of dosing material per 20 g of body weight. […] Animals were anesthetized and held with the dorsal end facing down. Dosing materials were administered at a rate of ˜1 μL/10 seconds split equally through both nostrils. Total dosing time ranged from 1.8 to 2.3 minutes. After a nominal 10 minutes post-dose, animals were sacrificed followed by blood collection, perfusion, and tissue collection. The olfactory bulbs were included in the collection of the brain tissues. All tissues were stored at nominal −80° C. until assay. Perfusate contains: 1×PBS pH 7.4, +2.7% w/v BSA+100 U/mL heparin. […] Read plate at Ex/Em 635/675.

[5] = brain, individual animals, 5 m post intranasal dose
[6] = insulin^AF647 0.90 mg/kg single intranasal dose, time point 0 m
[7] = insulin^AF647 0.90 mg/kg single intranasal dose, time point 5 m
[8] = insulin^AF647 0.90 mg/kg single intranasal dose, time point 10 m
[9] = insulin^AF647 0.90 mg/kg single intranasal dose, time point 30 m
[10] = insulin^AF647 0.90 mg/kg single intranasal dose, time point 1 h
[11] = insulin^AF647 0.90 mg/kg single intranasal dose, time point 2 h
[12] = insulin^AF647 0.90 mg/kg single intranasal dose, time point 4 h
[13] = insulin^AF647 0.90 mg/kg single intranasal dose, time point 8 h
[14] = insulin^AF647 high dose 3.0 mg/kg intranasal
[15] = insulin^AF647 low dose 0.6 mg/kg intranasal
[16] = insulin^AF647 high dose 3.0 mg/kg intranasal, 3 mg/kg

In the case of Insulin, the “% Dose (Insulin Group)” value [1, 5] is reported as 0.23%, the “Ind. Insulin Conc.” value [1, 5] is reported as “<LLOQ (4×) and 165 ng/g” and the “Ind. Insulin Conc.” value ([1]; brain, individual animals, 10 m post intranasal dose) is reported as “<LLOQ”. For the same substance, the “Ind. Insulin Conc.” value ([1]; brain, individual animals, 30 m post intranasal dose) was “<LLOQ”, the “Ind. Insulin Conc.” value ([1]; brain, individual animals, 1 h post intranasal dose) was “<LLOQ” and the “Ind. Insulin Conc.” value ([1]; brain, individual animals, 2 h post intranasal dose) was “<LLOQ”. The “Ind. Insulin Conc.” value ([1]; brain, individual animals, 4 h post intranasal dose) was “<LLOQ”, the “Ind. Insulin Conc.” value ([1]; brain, individual animals, 8 h post intranasal dose) was “<LLOQ” and the “Insulin Conc in brain, Individual” value ([1]; time point 0 m) was “<LLOQ”. For the same substance, the “Insulin Conc in brain, Individual” value ([1]; time point 5 m) was “<LLOQ (4×) and 165 ng/g”, the “Insulin Conc in brain, Individual” value ([1]; time point 10 m) was “<LLOQ” and the “Insulin Conc in brain, Individual” value ([1]; time point 30 m) was “<LLOQ”. The “Insulin Conc in brain, Individual” value ([1]; time point 1 h) was “<LLOQ”, the “Insulin Conc in brain, Individual” value ([1]; time point 2 h) was “<LLOQ” and the “Insulin Conc in brain, Individual” value ([1]; time point 4 h) was “<LLOQ”. For the same substance, the “Insulin Conc in brain, Individual” value ([1]; time point 8 h) was “<LLOQ”, the “insulin levels in brain, all time points evaluated” value ([1]; insulin^AF647 0.90 mg/kg intranasal, except for one animal at the 5-minute time point) was “below LLOQ” and the “distribution to the brain (in words)” value ([1]; insulin^AF647 0.90 mg/kg single intranasal dose, any of the time points evaluated (0 m to 8 h)) was “not appreciably distributed to the brain”. For the same substance, the “Insulin Conc in brain, Mean” value [1, 6] was “<LLOQ”, the “Insulin Conc in brain, Median” value [1, 6] was “<LLOQ” and the “Insulin Conc in brain, Mean” value [1, 7] was “<LLOQ”. For the same substance, the “Insulin Conc in brain, Median” value [1, 7] was “<LLOQ”, the “Insulin Conc in brain, Mean” value [1, 8] was “<LLOQ” and the “Insulin Conc in brain, Median” value [1, 8] was “<LLOQ”. The “Insulin Conc in brain, Mean” value [1, 9] was “<LLOQ”, the “Insulin Conc in brain, Median” value [1, 9] was “<LLOQ” and the “Insulin Conc in brain, Mean” value [1, 10] was “<LLOQ”. For the same substance, the “Insulin Conc in brain, Median” value [1, 10] was “<LLOQ”, the “Insulin Conc in brain, Mean” value [1, 11] was “<LLOQ” and the “Insulin Conc in brain, Median” value [1, 11] was “<LLOQ”. For the same substance, the “Insulin Conc in brain, Mean” value [1, 12] was “<LLOQ”, the “Insulin Conc in brain, Median” value [1, 12] was “<LLOQ” and the “Insulin Conc in brain, Mean” value [1, 13] was “<LLOQ”. The “Insulin Conc in brain, Median” value [1, 13] was “<LLOQ”, the “Brain Conc.” value ([2]; insulin^AF647 high dose 3.0 mg/kg intranasal, nominal 10 minutes post-dose, 3 mg/kg) was 80.1 ng/g and 82.0 ng/g and 7.52 ng/g and 7.15 ng/g and the “Brain % Dose” value ([2]; insulin^AF647 low dose 0.6 mg/kg intranasal, nominal 10 minutes post-dose) was 0.02 % Dose. For the same substance, the “Brain Conc.” value ([2]; insulin^AF647 low dose 0.6 mg/kg intranasal, nominal 10 minutes post-dose, 0.6 mg/kg) was 9.87 ng/g and 4.99 ng/g and 22.5 ng/g and 11.3 ng/g, the “concentration levels detected in the mouse brain (in words)” value ([2]; pilot study, 10 minutes post-dose, intranasal, Sialong at both dose levels, insulin even at 3.0 mg/kg) was “Low concentration levels” and the “relationship between brain and plasma levels as the dose increased” value ([2]; pilot study, 10 minutes post-dose, Sialong 2.1 to 10.5 mg/kg, insulin 0.6 to 3.0 mg/kg intranasal) was “linear relationship”. For the same substance, the “Kidney Conc.” value [3, 14] was “<LLOQ”, the “Liver Conc.” value [3, 14] was “<LLOQ” and the “Lung Conc.” value [3, 14] was “<LLOQ”. For the same substance, the “Spleen Conc.” value [3, 14] was “<LLOQ”, the “Kidney Conc.” value [3, 15] was “<LLOQ” and the “Liver Conc.” value [3, 15] was “<LLOQ”. The “Lung Conc.” value [3, 15] was “<LLOQ”, the “Spleen Conc.” value [3, 15] was “<LLOQ” and the “Plasma % Dose” value [4, 16] was 0.04 % Dose and 0.03 % Dose. The “Plasma Conc.” value [4, 16] was 0.0525 µg/mL and 0.0396 µg/mL, the “Plasma % Dose” value [4, 15] was 0.04 % Dose and the “Plasma Conc.” value ([4]; insulin^AF647 low dose 0.6 mg/kg intranasal, 0.6 mg/kg) was 0.0144 µg/mL and 0.0118 µg/mL.

Where “and” joins values, the source holds several entries; their conditions need not be identical. Equal values may be shown once.
